## CycPeptMPDB entries from one study

Collected by the curators of CycPeptMPDB (Li et al. 2023) from Kelly et al. 2021, doi:10.1021/jacs.0c06115.

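Lipid, pH, incubation time, direction and concentration are not recorded in the data file. The list need not hold all peptides of the study. Entries at the database's floor value (log10 P of -10) are not listed.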

PAMPA measures passive passage through an artificial lipid membrane.
Values are log10 P with P in cm/s, so -5 is more permeable than -7.

| SMILES | PAMPA (log10 cm/s) |
|---|---|
| CC(=O)N1CCC[C@H]1C(=O)N(C)[C@H](CC(C)C)C(=O)N[C@@H]1C(=O)N[C@H](Cc2ccc(F)cc2)C(=O)N[C@@H](CCc2ccccc2)C(=O)N[C@H](Cc2ccccc2)C(=O)N(C)[C@H](C)C(=O)N[C@@H](CC(C)C)C(=O)N2CCC[C@H]2C(=O)O[C@@H]1C | -6.00 |
| CC(=O)N1CCC[C@H]1C(=O)N[C@@H]1C(=O)N[C@H](CC(C)C)C(=O)N(C)[C@H](CC(C)C)C(=O)N[C@@H](CC(C)C)C(=O)N[C@@H](CC(C)C)C(=O)N[C@H](C)C(=O)N[C@@H](CC(C)C)C(=O)N2CCC[C@@H]2C(=O)O[C@@H]1C | -6.28 |
| CC[C@H]1NC(=O)[C@H](Cc2ccc(OC)cc2)NC(=O)[C@@H](Cc2ccc(F)c(F)c2)NC(=O)[C@@H](NC(=O)[C@@H](CC(C)C)N(C)C(=O)[C@@H]2CCCN2C(C)=O)[C@@H](C)OC(=O)[C@@H]2CCCN2C(=O)[C@H](CC(C)C)NC(=O)[C@@H](C)N(C)C1=O | -5.97 |
| CC(=O)N1CCC[C@H]1C(=O)N(C)[C@H](CC(C)C)C(=O)N[C@@H]1C(=O)N[C@H](CC(C)C)C(=O)N[C@@H](CC(C)C)C(=O)N[C@H](Cc2ccc(F)cc2)C(=O)N(C)[C@H](C)C(=O)N[C@@H](CC(C)C)C(=O)N2CCC[C@H]2C(=O)O[C@@H]1C | -5.54 |
| CC(=O)N[C@@H]1C(=O)N2CCC[C@H]2C(=O)N(C)[C@H](CC(C)C)C(=O)N[C@@H](CC(C)C)C(=O)N(C)[C@@H](CC(C)C)C(=O)N(C)[C@@H](CC(C)C)C(=O)N(C)[C@H](C)C(=O)N[C@@H](CC(C)C)C(=O)N2CCC[C@@H]2C(=O)O[C@@H]1C | -5.47 |
| CC(=O)N1CCC[C@H]1C(=O)N[C@@H]1C(=O)N[C@H](CC(C)C)C(=O)N(C)[C@H](CC(C)C)C(=O)N(C)[C@H](CC(C)C)C(=O)N[C@H](CC(C)C)C(=O)N[C@H](C)C(=O)N[C@@H](CC(C)C)C(=O)N2CCC[C@@H]2C(=O)O[C@@H]1C | -5.95 |
| CC(=O)N1CCC[C@H]1C(=O)N(C)[C@H](CC(C)C)C(=O)N[C@@H]1C(=O)N[C@H](CC(C)C)C(=O)N[C@@H](CC(C)C)C(=O)N[C@H](Cc2cccc3ccccc23)C(=O)N(C)[C@H](C)C(=O)N[C@@H](CC(C)C)C(=O)N2CCC[C@H]2C(=O)O[C@@H]1C | -5.89 |
| CC[C@@H]1NC(=O)[C@@H](CC2CCCCC2)NC(=O)[C@@H](NC(=O)[C@@H](CC(C)C)N(C)C(=O)[C@@H]2CCCN2C(C)=O)[C@@H](C)OC(=O)[C@@H]2CCCN2C(=O)[C@H](CC(C)C)NC(=O)[C@@H](C)N(C)C(=O)[C@@H](Cc2ccc(F)c(F)c2)NC1=O | -5.41 |
| CC[C@H]1NC(=O)[C@@H](NC(=O)[C@@H](CC(C)C)N(C)C(=O)[C@@H]2CCCN2C(C)=O)[C@@H](C)OC(=O)[C@@H]2CCCN2C(=O)[C@H](CC(C)C)NC(=O)[C@@H](C)N(C)C(=O)[C@@H](Cc2ccccc2)NC(=O)[C@H](Cc2ccccc2)NC1=O | -5.66 |
| CC(=O)N1CCC[C@H]1C(=O)N[C@@H]1C(=O)N(C)[C@H](CC(C)C)C(=O)N(C)[C@@H](CC(C)C)C(=O)N(C)[C@H](CC(C)C)C(=O)N[C@@H](CC(C)C)C(=O)N[C@H](C)C(=O)N[C@@H](CC(C)C)C(=O)N2CCC[C@@H]2C(=O)O[C@@H]1C | -5.23 |
| CC[C@H]1NC(=O)[C@H](Cc2ccc(OC)cc2)NC(=O)[C@@H](Cc2ccc(F)cc2)NC(=O)[C@@H](NC(=O)[C@@H](CC(C)C)N(C)C(=O)[C@@H]2CCCN2C(C)=O)[C@@H](C)OC(=O)[C@@H]2CCCN2C(=O)[C@H](CC(C)C)NC(=O)[C@@H](C)N(C)C1=O | -6.85 |
| CC[C@H]1NC(=O)[C@@H](NC(=O)[C@@H](CC(C)C)N(C)C(=O)[C@@H]2CCCN2C(C)=O)[C@@H](C)OC(=O)[C@@H]2CCCN2C(=O)[C@H](CC(C)C)NC(=O)[C@@H](C)N(C)C(=O)[C@@H](CC)NC(=O)[C@H](Cc2ccccc2)NC1=O | -6.85 |
| CC(=O)N1CCC[C@H]1C(=O)N[C@@H]1C(=O)N(C)[C@H](CC(C)C)C(=O)N(C)[C@@H](CC(C)C)C(=O)N(C)[C@@H](CC(C)C)C(=O)N(C)[C@@H](CC(C)C)C(=O)N[C@H](C)C(=O)N[C@@H](CC(C)C)C(=O)N2CCC[C@@H]2C(=O)O[C@@H]1C | -5.01 |
| CC(=O)N1CCC[C@H]1C(=O)N(C)[C@H](CC(C)C)C(=O)N[C@@H]1C(=O)N[C@H](Cc2ccc(F)cc2)C(=O)N[C@@H](CC(C)C)C(=O)N[C@H](Cc2cccc3ccccc23)C(=O)N(C)[C@H](C)C(=O)N[C@@H](CC(C)C)C(=O)N2CCC[C@H]2C(=O)O[C@@H]1C | -6.12 |
| CC(=O)N1CCC[C@H]1C(=O)N(C)[C@H](CC(C)C)C(=O)N[C@@H]1C(=O)N[C@H](Cc2ccc(F)cc2)C(=O)N[C@@H](CCc2ccccc2)C(=O)N[C@H](Cc2cccc3ccccc23)C(=O)N(C)[C@H](C)C(=O)N[C@@H](CC(C)C)C(=O)N2CCC[C@H]2C(=O)O[C@@H]1C | -6.85 |
| CC[C@@H]1NC(=O)[C@@H](Cc2ccc(F)c(F)c2)NC(=O)[C@@H](NC(=O)[C@@H](CC(C)C)N(C)C(=O)[C@@H]2CCCN2C(C)=O)[C@@H](C)OC(=O)[C@@H]2CCCN2C(=O)[C@H](CC(C)C)NC(=O)[C@@H](C)N(C)C(=O)[C@@H](Cc2ccc(F)c(F)c2)NC1=O | -5.60 |
| CC(=O)N1CCC[C@H]1C(=O)N(C)[C@H](CC(C)C)C(=O)N[C@@H]1C(=O)N[C@H](Cc2ccc(F)c(F)c2)C(=O)N[C@@H](CCc2ccccc2)C(=O)N[C@H](Cc2ccc(F)c(F)c2)C(=O)N(C)[C@H](C)C(=O)N[C@@H](CC(C)C)C(=O)N2CCC[C@H]2C(=O)O[C@@H]1C | -6.79 |
| CC(=O)N[C@@H]1C(=O)N2CCC[C@H]2C(=O)N(C)[C@H](CC(C)C)C(=O)N(C)[C@@H](CC(C)C)C(=O)N(C)[C@@H](CC(C)C)C(=O)N(C)[C@H](CC(C)C)C(=O)N[C@@H](C)C(=O)N[C@@H](CC(C)C)C(=O)N2CCC[C@@H]2C(=O)O[C@@H]1C | -5.06 |
| CC(=O)N1CCC[C@H]1C(=O)N[C@@H]1C(=O)N(C)[C@H](CC(C)C)C(=O)N(C)[C@@H](CC(C)C)C(=O)N(C)[C@H](CC(C)C)C(=O)N(C)[C@@H](CC(C)C)C(=O)N[C@@H](C)C(=O)N[C@@H](CC(C)C)C(=O)N2CCC[C@@H]2C(=O)O[C@@H]1C | -5.12 |
| CC(=O)N1CCC[C@H]1C(=O)N[C@@H]1C(=O)N(C)[C@H](CC(C)C)C(=O)N(C)[C@@H](CC(C)C)C(=O)N[C@H](CC(C)C)C(=O)N(C)[C@H](CC(C)C)C(=O)N(C)[C@@H](C)C(=O)N[C@@H](CC(C)C)C(=O)N2CCC[C@@H]2C(=O)O[C@@H]1C | -5.09 |
| CC(=O)N1CCC[C@H]1C(=O)N[C@@H]1C(=O)N[C@H](CC(C)C)C(=O)N(C)[C@@H](CC(C)C)C(=O)N[C@@H](CC(C)C)C(=O)N[C@@H](CC(C)C)C(=O)N[C@@H](C)C(=O)N[C@@H](CC(C)C)C(=O)N2CCC[C@@H]2C(=O)O[C@@H]1C | -6.11 |
| CC(=O)N1CCC[C@H]1C(=O)N(C)[C@H](CC(C)C)C(=O)N[C@@H]1C(=O)N[C@H](Cc2ccc(F)c(F)c2)C(=O)N[C@@H](Cc2ccc(F)cc2)C(=O)N[C@H](Cc2cccc3ccccc23)C(=O)N(C)[C@H](C)C(=O)N[C@@H](CC(C)C)C(=O)N2CCC[C@H]2C(=O)O[C@@H]1C | -6.76 |
| CC(=O)N1CCC[C@H]1C(=O)N[C@@H]1C(=O)N[C@H](CC(C)C)C(=O)N(C)[C@H](CC(C)C)C(=O)N[C@H](CC(C)C)C(=O)N[C@@H](CC(C)C)C(=O)N[C@H](C)C(=O)N[C@@H](CC(C)C)C(=O)N2CCC[C@@H]2C(=O)O[C@@H]1C | -6.13 |
| CC[C@H]1NC(=O)[C@@H](NC(=O)[C@@H](CC(C)C)N(C)C(=O)[C@@H]2CCCN2C(C)=O)[C@@H](C)OC(=O)[C@@H]2CCCN2C(=O)[C@H](CC(C)C)NC(=O)[C@@H](C)N(C)C(=O)[C@@H](Cc2ccccc2)NC(=O)[C@H](Cc2ccc(F)cc2)NC1=O | -5.59 |

Extract of 2 entries:

| SMILES | PAMPA (log10 cm/s) |
|---|---|
| CC(=O)N1CCC[C@H]1C(=O)N[C@@H]1C(=O)N(C)[C@H](CC(C)C)C(=O)N(C)[C@@H](CC(C)C)C(=O)N(C)[C@H](CC(C)C)C(=O)N(C)[C@@H](CC(C)C)C(=O)N[C@@H](C)C(=O)N[C@@H](CC(C)C)C(=O)N2CCC[C@@H]2C(=O)O[C@@H]1C | -5.12 |
| CC(=O)N1CCC[C@H]1C(=O)N(C)[C@H](CC(C)C)C(=O)N[C@@H]1C(=O)N[C@H](CC(C)C)C(=O)N[C@@H](CC(C)C)C(=O)N[C@H](Cc2ccc(F)cc2)C(=O)N(C)[C@H](C)C(=O)N[C@@H](CC(C)C)C(=O)N2CCC[C@H]2C(=O)O[C@@H]1C | -5.54 |